Earlier results in US20210315865A1 (Biohaven Therapeutics Ltd., priority 2018, published 2021).

Assays:
liver function tests = details: in vivo
oral mucosa = details: administered directly to the oral mucosa

oral numbness (oral mucosa): intense oral numbness
Structure (SMILES): Nc1nc2ccc(OC(F)(F)F)cc2s1 [riluzole, 6-(trifluoromethoxy)benzothiazol-2-amine]
effects on liver function tests (liver function tests): dose-dependent effects on liver function tests
